Measured values reported in ChEMBL document CHEMBL1125327, “Conformationally restricted deltorphin analogues” (J Med Chem, 1992).

Amino acid sequences for entries named in this document (tags omitted).
UniProt P32300, whole entry: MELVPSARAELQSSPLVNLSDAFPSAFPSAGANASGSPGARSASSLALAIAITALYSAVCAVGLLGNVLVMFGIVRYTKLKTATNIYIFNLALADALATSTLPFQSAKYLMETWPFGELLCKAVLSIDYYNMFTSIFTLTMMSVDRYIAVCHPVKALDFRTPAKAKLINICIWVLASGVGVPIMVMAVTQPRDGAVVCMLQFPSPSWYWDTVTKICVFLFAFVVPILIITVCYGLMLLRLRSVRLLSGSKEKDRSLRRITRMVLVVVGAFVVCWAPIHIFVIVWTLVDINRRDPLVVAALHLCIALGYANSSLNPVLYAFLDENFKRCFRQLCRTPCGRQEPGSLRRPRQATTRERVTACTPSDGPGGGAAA

Target: Delta-type opioid receptor (Mus musculus, UniProt P32300)
Experiment: Inhibition of electrically evoked contractions in mouse vas deferens
Type: functional

Row | Structure (SMILES) | IC50 [µM]
1 | CC(C)[C@H](NC(=O)[C@H](CC(=O)O)NC(=O)[C@@H](Cc1ccccc1)NC(=O)[C@@H](C)NC(=O)[C@@H](N)Cc1ccc(O)cc1)C(=O)N[C@H](C(=O)NCC(N)=O)C(C)C | 0.0427
2 | CC(C)[C@H](NC(=O)[C@H](CC(=O)O)NC(=O)[C@H](Cc1ccccc1)NC(=O)[C@@H](C)NC(=O)[C@@H](N)Cc1ccc(O)cc1)C(=O)N[C@H](C(=O)NCC(N)=O)C(C)C [DELTORPHIN C] | 0.000147
